Assay results from patent US20150337056A1, “Method for Immediately Terminating Radical Polymerizations, Inhibitor Solution, and Use Thereof” (Allessa GmbH, priority 2013, published 2015).

Assay: Solubility and low-temperature stability of inhibitors in (poly)alkylene glycols
Conditions: in poly(alkylene) glycol(s)

temperature down to which stable solutions are formed: −25 °C
Compound: COc1ccc(O)cc1 [MEHQ, hydroquinone monomethyl ether]
